Source: US20250313575A1, “MACROCYCLES AS LRRK2 INHIBITORS, PHARMACEUTICAL COMPOSITIONS, AND USES THEREOF” (Merck Sharp & Dohme LLC, priority 2022, published 2025)

Chains of the proteins cited; added tags and fusions are not shown. Residues count along the entry.
UniProt Q5S007, 970-2527 G2019S limits assumed: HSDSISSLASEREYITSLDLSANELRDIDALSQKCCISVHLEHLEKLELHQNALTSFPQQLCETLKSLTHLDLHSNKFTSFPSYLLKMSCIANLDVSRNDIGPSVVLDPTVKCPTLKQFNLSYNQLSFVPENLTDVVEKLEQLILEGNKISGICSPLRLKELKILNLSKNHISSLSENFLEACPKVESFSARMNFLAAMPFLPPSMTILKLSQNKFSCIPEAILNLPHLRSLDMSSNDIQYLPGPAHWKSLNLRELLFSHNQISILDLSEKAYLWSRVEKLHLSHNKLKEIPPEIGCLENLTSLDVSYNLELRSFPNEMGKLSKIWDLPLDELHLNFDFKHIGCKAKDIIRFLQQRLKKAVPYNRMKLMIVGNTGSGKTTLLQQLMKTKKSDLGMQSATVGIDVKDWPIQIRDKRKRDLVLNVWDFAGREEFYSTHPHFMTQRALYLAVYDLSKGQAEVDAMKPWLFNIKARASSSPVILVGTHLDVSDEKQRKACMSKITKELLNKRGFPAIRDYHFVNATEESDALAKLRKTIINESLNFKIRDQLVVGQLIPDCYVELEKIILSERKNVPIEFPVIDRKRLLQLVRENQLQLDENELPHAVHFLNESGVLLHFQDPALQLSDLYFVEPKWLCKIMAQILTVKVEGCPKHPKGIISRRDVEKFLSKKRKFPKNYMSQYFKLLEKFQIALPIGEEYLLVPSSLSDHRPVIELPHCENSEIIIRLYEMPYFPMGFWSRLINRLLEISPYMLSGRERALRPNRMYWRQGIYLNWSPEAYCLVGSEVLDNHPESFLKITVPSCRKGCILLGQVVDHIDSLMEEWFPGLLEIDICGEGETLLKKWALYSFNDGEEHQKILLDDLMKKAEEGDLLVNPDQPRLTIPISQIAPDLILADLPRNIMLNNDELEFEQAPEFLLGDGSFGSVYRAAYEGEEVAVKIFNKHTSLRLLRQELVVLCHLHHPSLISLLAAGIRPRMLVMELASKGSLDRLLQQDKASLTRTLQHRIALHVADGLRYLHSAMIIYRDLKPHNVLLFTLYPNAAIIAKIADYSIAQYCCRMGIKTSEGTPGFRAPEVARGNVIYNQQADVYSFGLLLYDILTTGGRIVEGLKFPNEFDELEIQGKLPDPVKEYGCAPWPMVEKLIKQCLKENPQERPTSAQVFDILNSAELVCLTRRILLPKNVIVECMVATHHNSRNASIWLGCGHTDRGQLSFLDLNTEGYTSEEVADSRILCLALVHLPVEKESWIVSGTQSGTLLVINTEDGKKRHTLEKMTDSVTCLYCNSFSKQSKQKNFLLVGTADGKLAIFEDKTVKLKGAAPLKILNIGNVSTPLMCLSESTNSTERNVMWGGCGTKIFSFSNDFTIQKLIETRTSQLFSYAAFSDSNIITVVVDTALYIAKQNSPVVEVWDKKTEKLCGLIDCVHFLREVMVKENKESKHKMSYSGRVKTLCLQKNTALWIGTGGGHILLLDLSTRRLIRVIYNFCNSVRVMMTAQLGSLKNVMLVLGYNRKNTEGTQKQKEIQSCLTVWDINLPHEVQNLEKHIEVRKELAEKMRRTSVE

Biological target: GST-tagged truncated human mutant G2019S LRRK2 (Homo sapiens (Human), UniProt Q5S007, G2019S)
Experiment: LRRK2 G2019S Km ATP LanthaScreen assay
Conditions: G2019S LRRK2, 134 μM ATP (Km ATP), LRRKtide substrate
Description: Unless otherwise noted, all reactions are magnetically allowed to stir, diethyl ether used in the experiments described below is Fisher ACS certified material stabilized with BHT, and “concentrated” and/or “solvent removed under reduced pressure” means evaporating the solvent from a solution or mixture using a rotary evaporator or vacuum pump. Unless otherwise noted, flash chromatography is carried out on a Teledyne Isco (Lincoln, NE), Analogix (Burlington, WI), or Biotage (Stockholm, SWE) automated chromatography system using a commercially available cartridge as the column. […]
The LRRK2 kinase activity reported herein as IC50 values was determined with LanthaScreen™ technology from Life Technologies Corporation (Carlsbad, CA) using GST-tagged truncated human mutant G2019S LRRK2 in the presence of the fluorescein-labeled peptide substrate LRRKtide, also from Life Technologies. […] Upon completion, the assay was stopped and phosphorylated substrate detected with a terbium (Tb)-labeled anti-pERM antibody (cat. no. PV4898). […] After an incubation of 1 h at room temperature, the plate was read on an EnVision multimode plate reader (Perkin Elmer, Waltham, MA) with an excitation wavelength of 337 nm (Laser) and a reading emission at both 520 and 495 nm. […]

Row | Structure (SMILES) | LRRK2 pIC50
1 | CC(C)(CO)c1nn(C2CCC2)c2c1OC[C@@H]1CC[C@H]1Nc1nc(ncc1C(F)(F)F)N2 (relative stereo) | 6.62
2 | CC(C)(CO)c1nn(C2CCC2)c2c1OC[C@H]1CC[C@@H]1Nc1nc(ncc1C(F)(F)F)N2 (relative stereo) | 10.03
